## Yeast mating assay B: variants of the scFv Ab-14

Reference: Li et al. 2023, doi:10.1038/s41467-023-39022-2. File: FLAb, binding data.

All variants were tested on one target, the spike HR2 peptide PDVDLGDISGINAS (SARS-CoV-2).

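This is the validation round: designs drawn from the data on random variants, tested in the same kind of assay. Group labels follow the data file (Ctrl: baseline library sampled from a position-specific scoring matrix, with some repeated check sequences; GP: Gaussian process model; HC: hill climbing; Gen: genetic algorithm; Gibbs: Gibbs sampling; a sequence that several methods proposed may carry one label only). In AlphaSeq, yeast of one mating type display the scFv and yeast of the other type display the target. Pairs that bind mate more often; barcode pairs of the diploids are counted by sequencing. Scores were corrected for input abundance and mapped to Kd with protein pairs of known affinity run in the same pool. Each pool was mated in six replicate cultures.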

Parent: Ab-14, a human scFv built as VH, the linker GGGGSGGGGSGGGGS, VL. Only the CDRs of the light chain vary.
VH: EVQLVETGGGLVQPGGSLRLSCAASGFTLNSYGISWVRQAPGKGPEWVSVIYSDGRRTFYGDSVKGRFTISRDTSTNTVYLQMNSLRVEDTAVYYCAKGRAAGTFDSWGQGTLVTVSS
VL: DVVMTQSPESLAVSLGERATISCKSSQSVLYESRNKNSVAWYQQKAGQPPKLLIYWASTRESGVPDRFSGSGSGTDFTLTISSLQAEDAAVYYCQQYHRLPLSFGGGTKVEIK

The parent's light chain CDRs are KSSQSVLYESRNKNSVA, WASTRES, QQYHRLPLS; each variant's own CDRs replace them letter for letter. This list holds designs with at most six substitutions. The read-out is the apparent dissociation constant on a log10 scale (nM): the lower, the stronger. A mean of the replicates is given; it leaves out those without a signal. An entry "no signal" has no value in the source: the pair was not observed among the diploids in any replicate. This suggests poor binding but is not conclusive. Nonspecific signal, from three strains lacking the peptide, appeared in 4% of pairings of all light chain designs, centred on 2.64 (5% of these signals below 1.59); values are not corrected for it. The range of this assay differs from that of the first round, and the authors advise against merging the two. The parent sequence was in this pool as ten entries: three were never detected, three once, and four in most replicates, with averages from 0.34 to 2.37. The authors' rule: three or more of the six replicates give a measured affinity, fewer mean a poor binder.

- KVSQAFLNESRNKNSVA | DANTRES | QQYHRLPLS [GP_HC] = -0.28 (6 of 6 replicates)
- KSSQSVDYELRNKNSVA | WASTRES | YQYHRLPLS [Ctrl] = 2.01 (4 of 6 replicates)
- KIQQSVQYESRNKNSVA | NASDRFS | QQYHRLPLS [GP_Gibbs] = 0.40 (6 of 6 replicates)
- KISQAELYESRNKNSVA | WASTRVS | QQYHRAPLS [Ctrl] = 2.62 (1 of 6 replicates)
- KVPQSFLYESRNKNSVA | NASTRES | QQYHRLPLS [GP_Gen] = -0.21 (6 of 6 replicates)
- KISQSVLYESSNENSVA | WASTRES | QQYHRLPLS [Ctrl] = 1.54 (6 of 6 replicates)
- KLSQSHLYEERNDNSVA | SASQRES | QQYHRLPLS [GP_Gibbs] = 0.17 (6 of 6 replicates)
- KSSQSVLYESRNKNSVA | KASTRES | QQYHCLPLS [Ctrl] = 1.07 (1 of 6 replicates)
- KLSQSVLYESRQKNSVA | NASTRED | QQYHRLPLS [GP_Gen] = -0.15 (6 of 6 replicates)
- KLQQSQLYESRNKNSVA | HASTRLS | QQYHRLPLS [GP_Gen] = 0.24 (6 of 6 replicates)
- KFSQSVLYESRNKNSVA | EASTRES | QQYHRLPLM [GP_Gen] = -0.14 (6 of 6 replicates)
- KFSQKVLYEHRTKNSVA | NGSTRES | QQYHRLPLS [GP_HC] = 0.60 (6 of 6 replicates)
- KSSQSVLYYSRNKNSVA | NASTRES | QQYHRLPLS [Ctrl] = 0.76 (6 of 6 replicates)
- KQSQEVLYSSRNKNSVA | DASTRES | QQYHRLPLS [GP_HC] = -0.24 (6 of 6 replicates)
- KLSQSQLYESRNKNSVA | GASTRES | QQYHRLTLS [GP_HC] = 2.83 (5 of 6 replicates)
- KMSQSVLYESENKVSVA | NASTRYS | QQYHRLPLS [Ctrl] = 0.43 (6 of 6 replicates)
- KLSQSVLYEQRNKNSVA | HASTRES | QQYHRLPLS [GP_Gen] = 0.06 (6 of 6 replicates)
- KSSQSVLYESRNANSVA | WASTREN | QQYLRLPLS [Ctrl] = 2.11 (5 of 6 replicates)
- KSSQHVLYESNNKNSVA | HASTRES | QQYHRLPLS [Ctrl] = 1.16 (6 of 6 replicates)
- KNTQSYLYESRNKNSVA | WASTRES | QQYHRLPLS [Ctrl] = 3.08 (2 of 6 replicates)
- KSPQSVLYESRNKNSVA | WASYRES | QQYHRLPLG [Ctrl] = no signal (0 of 6 replicates)
- KLPQSVLYESRNKNSVA | GASVRES | QQYHRLPLS [GP_HC] = -0.40 (6 of 6 replicates)
- KLSQSVLYESRMKNSVA | NASQRES | QQYHRLPLS [GP_Gen] = -0.42 (6 of 6 replicates)
- KSSQSVLGESNNKNSVA | WASTRES | QSYHRLPLS [Ctrl] = 1.47 (6 of 6 replicates)
- KSSQSVLGESRNKNSVA | WGSTRES | QQYHRLPLS [Ctrl] = 1.39 (6 of 6 replicates)
- KSSISWLYESRAKNSVA | EASTRES | QQYHRLPLS [GP_HC] = 0.62 (6 of 6 replicates)
- KSSQSVIYESRNKQSVA | WASTRES | QQYHRLELS [Ctrl] = no signal (0 of 6 replicates)
- KVSQSKLGESRNKNSVA | NASTRED | QQYHRLPLS [GP_Gibbs] = -0.06 (6 of 6 replicates)
- KSSQSVLYESRNKGSVA | WASTRES | DQYVRLPLS [Ctrl] = 1.20 (1 of 6 replicates)
- KSSMSELYESRNKPSVA | SASTRES | QQYHRLPLS [Ctrl] = 1.00 (6 of 6 replicates)
- KSSQSVLYESRNFNSVA | SASTREP | QQYHRLPLS [Ctrl] = 1.05 (6 of 6 replicates)
- KLSQSGLYESRNKNSVA | EASTRES | QDYHRLPLS [GP_Gen] = 0.26 (6 of 6 replicates)
- KLEQSKLYESRNKNSVA | NASQRES | QQYHRLPLS [GP_Gen] = -0.24 (6 of 6 replicates)
- KVGQSFLQESRNKNSVA | HASMRES | QQYHRLPLS [GP_Gibbs] = 0.11 (6 of 6 replicates)
- KSSQSVLYESRNKASVA | WASTRES | QQYHRLPLS [Ctrl] = 2.74 (3 of 6 replicates)
- KSSQSVSYESRNKNSVA | WASTRES | QSYHRLPLS [Ctrl] = 2.94 (3 of 6 replicates)
- KISISYLYESRNHNSVA | EASTREQ | QQYHRLPLS [GP_HC] = 0.43 (6 of 6 replicates)

Excerpt, the first 4 entries:

CDR-L1	CDR-L2	CDR-L3	group	mean, log10 nM	detected
KVSQAFLNESRNKNSVA	DANTRES	QQYHRLPLS	GP_HC	-0.28	6 of 6
KSSQSVDYELRNKNSVA	WASTRES	YQYHRLPLS	Ctrl	2.01	4 of 6
KIQQSVQYESRNKNSVA	NASDRFS	QQYHRLPLS	GP_Gibbs	0.40	6 of 6
KISQAELYESRNKNSVA	WASTRVS	QQYHRAPLS	Ctrl	2.62	1 of 6